This is an account of results in patent US5428058A, “Phospholipase A2 inhibitors” (American Home Products Corporation, priority 1994, dated 1995).

In this assay the target is T1, 5-lipoxygenase (Mus musculus, UniProt P48999).
T1 construct: Resident peritoneal macrophages were collected from female Swiss Webster mice; endogenous in cells; host or cells: resident peritoneal macrophages of female Swiss Webster mice
T1 sequence (P48999 1-674): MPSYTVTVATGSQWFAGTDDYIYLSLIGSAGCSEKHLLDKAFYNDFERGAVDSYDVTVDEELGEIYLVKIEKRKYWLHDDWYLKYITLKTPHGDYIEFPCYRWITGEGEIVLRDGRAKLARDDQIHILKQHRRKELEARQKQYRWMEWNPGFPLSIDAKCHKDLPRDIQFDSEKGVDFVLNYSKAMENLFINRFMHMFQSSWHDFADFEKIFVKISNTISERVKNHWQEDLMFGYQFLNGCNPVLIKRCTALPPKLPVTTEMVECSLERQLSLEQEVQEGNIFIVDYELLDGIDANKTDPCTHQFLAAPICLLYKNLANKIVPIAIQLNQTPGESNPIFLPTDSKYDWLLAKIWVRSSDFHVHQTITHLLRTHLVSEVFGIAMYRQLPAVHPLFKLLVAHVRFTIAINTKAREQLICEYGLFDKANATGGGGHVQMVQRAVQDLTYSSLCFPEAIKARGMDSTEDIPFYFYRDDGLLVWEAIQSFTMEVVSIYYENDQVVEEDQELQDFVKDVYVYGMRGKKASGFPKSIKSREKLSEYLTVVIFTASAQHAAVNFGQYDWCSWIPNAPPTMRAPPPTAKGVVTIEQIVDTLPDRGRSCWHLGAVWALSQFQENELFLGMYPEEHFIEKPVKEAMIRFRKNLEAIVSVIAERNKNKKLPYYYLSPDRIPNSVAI
As to the kind of experiment: 5-lipoxygenase inhibition (LTC4 production) in resident murine peritoneal macrophages. Format: cell-based, mouse (Swiss Webster). The following applies: reference inhibitors; stimulated mouse macrophages; 95% confidence limits on next line. As to the method:
The ability of the compounds of the invention to act as inhibitors of the enzymes 5-lipoxygenase and cyclooxygenase was evaluated in the resident murine peritoneal macrophage standard pharmacological test procedure. This test procedure was carried out as follows.
Resident peritoneal macrophages were collected from female Swiss Webster mice (49 days old, 20-25 gms, Buckshire) by lavaging with 7-8 ml Hanks Balanced Salt Solution (HBSS) without Ca^++ and Mg^++ (GIBCO). The lavage fluid from several mice was pooled and centrifuged at 4° C. for 10 minutes at 400 xg. The cell pellet was resuspended in Medium 199 (GIBCO) with HEPES buffer containing 100 μg/ml gentamicin. Two ml of the cell suspension (4×10^6 cells) were then plated on 35 mm culture dishes (Nunc).
A macrophage monolayer was established after a 1-1.5 hour incubation of the cells at 37° C. in an atmosphere of […] and 5% CO2. […]
Residual serum and cellular debris were removed from the monolayers by washing 3× with 2 ml HBSS containing Ca^++ and Mg^++. […] In all cases, results are expressed as ng metabolite/4×10^6 cells.
Calculations: The raw data were converted to ng metabolite/4-10^6 cells using a standard curve. Results were then expressed as percent inhibition of zymosan induced, leukotriene or prostaglandin synthesis (control) using the following equation: [formula] […]

SMILES strings stand for the structures.

Molecule `NC1=NN(c2cccc(C(F)(F)F)c2)CC1` [BW 755c, reference compound] gave an IC50 of 210 nM.
